Measurements taken from IntAct's records for PubMed 19270718.

B1: Transcription factor p65 (Homo sapiens), Q04206 (parent)
chain: MDELFPLIFPAEPAQASGPYVEIIEQPKQRGMRFRYKCEGRSAGSIPGERSTDTTKTHPTIKINGYTGPGTVRISLVTKDPPHRPHPHELVGKDCRDGFYEAELCPDRCIHSFQNLGIQCVKKRDLEQAISQRIQTNNNPFQVPIEEQRGDYDLNAVRLCFQVTVRDPSGRPLRLPPVLSHPIFDNRAPNTAELKICRVNRNSGSCLGGDEIFLLCDKVQKEDIEVYFTGPGWEARGSFSQADVHRQVAIVFRTPPYADPSLQAPVRVSMQLRRPSDRELSEPMEFQYLPDTDDRHRIEEKRKRTYETFKSIMKKSPFSGPTDPRPPPRRIAVPSRSSASVPKPAPQPYPFTSSLSTINYDEFPTMVFPSGQISQASALAPAPPQVLPQAPAPAPAPAMVSALAQAPAPVPVLAPGPPQAVAPPAPKPTQAGEGTLSEALLQLQFDDEDLGALLGNSTDPAVFTDLASVDNSEFQQLLNQGIPVAPHTTEPMLMEYPEAITRLVTGAQRPPDPAPAPLGAPGLPNGLLSGDEDFSSIADMDFSALLSQISS
B2: Transcription factor p65 (Homo sapiens), Q04206 (parent)
chain: B1 chain
partner: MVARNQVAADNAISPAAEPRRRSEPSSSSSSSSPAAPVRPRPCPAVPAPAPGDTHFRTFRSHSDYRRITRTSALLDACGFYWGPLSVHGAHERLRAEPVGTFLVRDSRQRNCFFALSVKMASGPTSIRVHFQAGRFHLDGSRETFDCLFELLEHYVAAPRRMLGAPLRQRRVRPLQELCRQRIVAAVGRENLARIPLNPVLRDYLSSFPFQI

Variants of: B1
Conditions: with cul2_mouse Cul2, Q9D4H8

Row | Variant | effect of a mutation on the interaction
1 | S468A | disrupting interaction

Variants of: B2
Conditions: with socs1_mouse Socs1, O35716

Row | Variant | effect of a mutation on the interaction
2 | S468A | decreasing interaction
